Assay [1] in a line: qHTS assay to identify small molecule antagonists of the sonic hedgehog signaling (Shh) pathway (AID 1259369). Note: nearly all actives have a fitted effect of over 45% in size. Note: potency is the fitted concentration of half-maximal effect. The conditions noted are these: NIH/3T3 Gli1-Luc reporter, Shh antagonist, luminescence 24 h; series mostly up to 92.4 µM. Summed up:
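Conditioned medium drives Shh signalling in 3T3Gli1-Luc cells; compounds in DMSO co-applied, 24hr at 37 C, then luciferase luminescence.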
(In general: qHTS replaces the single test concentration by a dilution series.)

Protein sequences, listed by entry. Tags and fused reporters are not part of them.
UniProt P16473, whole entry: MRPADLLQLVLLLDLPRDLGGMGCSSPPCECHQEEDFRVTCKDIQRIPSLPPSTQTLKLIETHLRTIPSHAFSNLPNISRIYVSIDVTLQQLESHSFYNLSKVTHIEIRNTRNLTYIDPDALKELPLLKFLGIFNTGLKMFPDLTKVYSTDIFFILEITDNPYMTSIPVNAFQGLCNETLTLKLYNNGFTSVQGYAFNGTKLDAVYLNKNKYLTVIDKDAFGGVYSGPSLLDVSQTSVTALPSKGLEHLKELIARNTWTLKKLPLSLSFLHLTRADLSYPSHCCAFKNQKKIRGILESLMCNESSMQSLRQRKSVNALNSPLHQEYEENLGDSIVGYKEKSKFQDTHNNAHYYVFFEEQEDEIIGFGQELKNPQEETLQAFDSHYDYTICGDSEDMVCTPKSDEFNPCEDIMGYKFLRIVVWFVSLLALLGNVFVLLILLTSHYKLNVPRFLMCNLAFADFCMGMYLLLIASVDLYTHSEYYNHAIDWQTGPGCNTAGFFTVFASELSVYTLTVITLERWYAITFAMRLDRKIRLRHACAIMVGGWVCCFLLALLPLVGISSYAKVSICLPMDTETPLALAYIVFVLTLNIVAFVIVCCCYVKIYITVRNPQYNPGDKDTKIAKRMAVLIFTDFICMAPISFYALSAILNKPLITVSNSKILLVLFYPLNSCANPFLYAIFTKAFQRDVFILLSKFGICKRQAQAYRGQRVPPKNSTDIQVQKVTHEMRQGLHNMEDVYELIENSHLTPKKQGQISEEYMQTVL
UniProt Q92731, whole entry: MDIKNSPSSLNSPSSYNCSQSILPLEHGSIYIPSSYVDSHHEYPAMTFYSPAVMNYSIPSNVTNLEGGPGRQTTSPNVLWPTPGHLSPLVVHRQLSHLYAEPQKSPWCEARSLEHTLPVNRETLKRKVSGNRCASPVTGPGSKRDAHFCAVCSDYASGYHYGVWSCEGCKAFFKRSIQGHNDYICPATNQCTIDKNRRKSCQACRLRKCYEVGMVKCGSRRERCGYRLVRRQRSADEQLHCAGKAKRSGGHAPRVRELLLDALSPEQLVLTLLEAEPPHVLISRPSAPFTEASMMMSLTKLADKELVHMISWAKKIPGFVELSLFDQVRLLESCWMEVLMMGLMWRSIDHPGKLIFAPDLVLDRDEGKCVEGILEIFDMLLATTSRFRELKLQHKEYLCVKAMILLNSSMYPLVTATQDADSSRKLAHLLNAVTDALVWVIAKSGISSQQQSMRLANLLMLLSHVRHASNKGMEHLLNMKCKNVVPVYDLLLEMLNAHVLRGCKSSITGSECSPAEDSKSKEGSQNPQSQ
UniProt P10275, whole entry: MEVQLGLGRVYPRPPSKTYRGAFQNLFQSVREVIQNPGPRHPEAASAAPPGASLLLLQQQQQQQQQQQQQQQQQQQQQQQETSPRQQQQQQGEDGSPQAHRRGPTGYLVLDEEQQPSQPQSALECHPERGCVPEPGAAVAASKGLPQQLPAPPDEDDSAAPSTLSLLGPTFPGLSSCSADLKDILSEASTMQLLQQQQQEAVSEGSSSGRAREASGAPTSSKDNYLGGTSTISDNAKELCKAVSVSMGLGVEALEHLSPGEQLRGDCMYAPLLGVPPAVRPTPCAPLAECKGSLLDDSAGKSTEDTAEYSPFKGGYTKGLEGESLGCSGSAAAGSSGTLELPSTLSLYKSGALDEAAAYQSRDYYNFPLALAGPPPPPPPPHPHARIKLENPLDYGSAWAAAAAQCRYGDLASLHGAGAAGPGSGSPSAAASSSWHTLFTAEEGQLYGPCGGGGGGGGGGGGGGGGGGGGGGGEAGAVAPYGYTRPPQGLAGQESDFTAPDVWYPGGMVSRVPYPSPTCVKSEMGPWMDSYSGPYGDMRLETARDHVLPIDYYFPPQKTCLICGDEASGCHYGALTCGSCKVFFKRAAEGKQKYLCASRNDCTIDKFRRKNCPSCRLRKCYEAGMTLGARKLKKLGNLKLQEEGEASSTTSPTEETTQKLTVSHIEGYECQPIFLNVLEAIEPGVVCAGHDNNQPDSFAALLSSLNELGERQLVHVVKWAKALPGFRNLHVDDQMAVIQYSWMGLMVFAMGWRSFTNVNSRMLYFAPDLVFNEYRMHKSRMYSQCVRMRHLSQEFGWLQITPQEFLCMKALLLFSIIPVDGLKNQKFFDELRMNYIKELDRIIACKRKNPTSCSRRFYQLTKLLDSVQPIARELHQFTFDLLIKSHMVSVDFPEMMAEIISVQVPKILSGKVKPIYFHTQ
UniProt P03372, whole entry: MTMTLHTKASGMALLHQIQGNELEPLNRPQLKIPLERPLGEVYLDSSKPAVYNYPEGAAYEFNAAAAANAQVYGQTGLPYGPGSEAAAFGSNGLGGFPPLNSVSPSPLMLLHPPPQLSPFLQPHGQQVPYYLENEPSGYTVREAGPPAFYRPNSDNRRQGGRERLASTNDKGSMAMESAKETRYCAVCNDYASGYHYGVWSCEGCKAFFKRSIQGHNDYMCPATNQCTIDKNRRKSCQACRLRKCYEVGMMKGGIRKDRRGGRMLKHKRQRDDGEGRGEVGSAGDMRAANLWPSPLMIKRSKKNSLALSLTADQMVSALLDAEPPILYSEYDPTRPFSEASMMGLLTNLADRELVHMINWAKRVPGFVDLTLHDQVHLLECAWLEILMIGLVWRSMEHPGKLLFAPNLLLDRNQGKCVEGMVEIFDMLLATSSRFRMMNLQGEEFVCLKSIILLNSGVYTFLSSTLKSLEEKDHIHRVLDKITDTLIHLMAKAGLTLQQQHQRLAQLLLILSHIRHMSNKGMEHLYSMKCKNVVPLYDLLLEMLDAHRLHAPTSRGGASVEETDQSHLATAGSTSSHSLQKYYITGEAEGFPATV

Assay [2] is described as follows: qHTS assay to identify small molecule agonists or antagonists of the thyroid stimulating hormone receptor (TSHR) signaling pathway - wild type cell line counter screen (AID 1259384). Conditions: HEK293 wild type, cAMP HTRF counter-screen, hits give high values. Put shortly: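 Wild-type HEK293 cells were plated 18 h at 37 C/5% CO2, pin-dosed with compound plus Ro20-1724 medium, held 30 min at room temperature, then given cAMP-d2 and anti-cAMP-cryptate; fluorescence was read after 1 h. Fifteen concentrations, triplicate.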

In assay [3] the target is Thyrotropin receptor (Homo sapiens) (UniProt P16473). The assay is described as follows: qHTS assay to identify small molecule antagonists of the thyroid stimulating hormone receptor (TSHR) signaling pathway (AID 1259385). Note: nearly all actives have a fitted effect of over 20% in size. Conditions: TSHR-HEK293 cAMP HTRF, TSH-stimulated antagonist mode.
Assay [4] concerns the target Estrogen receptor beta (Homo sapiens) (UniProt Q92731). Briefly: qHTS assay to identify small molecule agonists of the estrogen receptor beta (ER-beta) signaling pathway (AID 1259377; active = well fitted activation curve with a large enough effect in the signal ratio in the repeat runs, not every such curve was filed as active; the % refers to the signal ratio). Conditions: ER-beta-UAS-bla HEK293T, beta-lactamase FRET ratio, 16 h; at 92.4 µM (top of the series).
Assay [5] has as its target Androgen receptor (Homo sapiens) (UniProt P10275). The assay is described as follows: qHTS assay to identify small molecule agonists of the androgen receptor (AR) signaling pathway in the presence of an antagonist (AID 1259381). Note: nearly all actives have a fitted effect of over 15% in size. Conditions: MDA-kb2 MMTV-luciferase, AR agonist + nilutamide, 16 h; at 92.4 µM (top of the series).
Assay [6] can be described thus: qHTS assay to identify small molecule antagonists of the estrogen receptor beta (ER-beta) signaling pathway - cell viability counter screen (AID 1259382; active = well fitted curve in the direction sought with a large enough effect in the repeat runs; an effect the other way counts as inactive or inconclusive; note: nearly all actives have a fitted effect of over 55% in size). The conditions noted are these: ER-beta-UAS-bla HEK293T viability, CellTiter-Glo luminescence, 16 h; at 92.4 µM (top of the series). Put shortly: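 Agonist-stimulated (1nM E2) ER-beta-UAS-bla HEK293T cells are incubated with library compounds for 16 hr at 37C. Cell viability is then assessed in the reporter-assay wells by adding CellTiter-Glo and reading luminescence after 30 min.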

For assay [7], the target named is Estrogen receptor (Homo sapiens) (UniProt P03372). The assay is described as follows: qHTS assay to identify small molecule agonists of the estrogen receptor alpha (ER-alpha) signaling pathway in the presence of an antagonist (AID 1259383). Note: top concentration of the series differs between compounds; nearly all actives have a fitted effect of over 15% in size. Conditions: VM7Luc4E2 cells, ERE-luciferase, +ICI-182,780, 22 h; at 92.4 µM (top of the series).
Assay [8] can be described thus: qHTS assay to identify small molecule agonists of the androgen receptor (AR) signaling pathway in the presence of an antagonist - cell viability counter screen (AID 1259379; active = well fitted curve in the direction sought with a large enough effect in the repeat runs; an effect the other way counts as inactive or inconclusive;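 note: MDA-kb2 human breast cancer cells carrying an MMTV luciferase reporter; nearly all actives have a fitted effect of over 25% in size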). The conditions noted are these: MDA-kb2 viability, CellTiter-Fluor, 16 h; at 92.4 µM (top of the series). Summed up:
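A CellTiter-Fluor read-out measured viability of MDA-kb2 reporter cells (MMTV promoter with AR and GR response elements). Treatment: nilutamide 3.0uM final with compounds at 15 concentrations, 16 hr, 37C, 0% CO2.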

Assay [9] is described as follows: qHTS assay to identify small molecule agonists of the estrogen receptor beta (ER-beta) signaling pathway - cell viability counter screen (AID 1259380; active = well fitted curve in the direction sought with a large enough effect in the repeat runs; an effect the other way counts as inactive or inconclusive; note: nearly all actives have a fitted effect of over 30% in size). Conditions: ER-beta-bla HEK293T viability, CellTiter-Glo luminescence, 16 h; at 92.4 µM (top of the series). Put shortly:
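Cells used were ER-beta-UAS-bla HEK293T in medium with 2% charcoal-stripped FBS. They were treated for 16 hr at 37C. Viability came from CellTiter-Glo luminescence.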

Assay [10] addresses Estrogen receptor beta (Homo sapiens) (UniProt Q92731). Briefly: qHTS assay to identify small molecule antagonists of the estrogen receptor beta (ER-beta) signaling pathway (AID 1259378; active = well fitted inhibition curve with a large enough effect in the signal ratio in the repeat runs, not every such curve was filed as active; the % refers to the signal ratio). The conditions noted are these: ER-beta-UAS-bla HEK293T, beta-lactamase FRET ratio, 16 h; at 92.4 µM (top of the series). Put shortly:
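ER-beta-UAS-bla HEK293T (GripTite) cells in 2% charcoal-stripped FBS medium were preincubated 6 hr at 37C, dosed with compound, then stimulated with 1 nM E2 (final) for 16 hr; beta-lactamase reporter read by B/G FRET fluorescence after 2 hr substrate loading.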

Where “and” joins values, the source holds several entries; their conditions need not be identical. Equal values may be shown once. The list shows a part of the results, in another mix than the full data. Records with an inconclusive call do not appear. Calls of active or inactive are those of the source. Unless noted, calls come from the whole dose curve.
% is set by controls: 0 for no effect and ±100 for the full control effect.

Regarding `CN(CCCl)CCCl`, the Potency in assay [1] is active: 5.44 µM and active: 15 µM. Moreover, the cAMP activity change is inactive: 0.606% in assay [2] (at 42.5 µM (top of the series)) and inactive: 1.83% in assay [2] (at 92.4 µM (top of the series)). Moreover, the activity change, negative = inhibition is inactive: 0.469% in assay [3] (at 42.5 µM (top of the series)) and inactive: -0.47% in [3] (at 92.4 µM (top of the series)).

On to `CCC(=O)N(c1ccccc1)C1(COC)CCN(CCc2cccs2)CC1`, for which the activation is inactive: -1.69% in assay [4], inactive: -7.97% in [5] and inactive: -1.26% in [7]. Further, in assay [6], the activity change, negative = cytotoxicity was inactive: -19.9%. Also, the cAMP activity change in assay [2] (at 92.4 µM (top of the series)) was inactive: -8.52%. Also, in assay [3] (at 92.4 µM (top of the series)), the activity change, negative = inhibition is inactive: -2.76%.

Consider `CCC(=O)N(c1ccccc1)C1(COC)CCN(CCn2nnn(CC)c2=O)CC1`, for which the Potency result in assay [1] is “inactive”. Also, the activity change, negative = cytotoxicity in assay [8] is inactive: 0.0658%; in assay [9] it was inactive: -12.6%; in assay [6] it was inactive: -4.35%. Further, the cAMP activity change in assay [2] (at 92.4 µM (top of the series)) was inactive: -6.87%. Also, the activity change, negative = inhibition in assay [3] (at 92.4 µM (top of the series)) was inactive: 5.69%.

Turning to `O=[N+]([O-])C(Cl)(Cl)Cl`, in assay [1], the Potency is active: 172 nM. Besides, the activation in assay [4] is inactive: 1.74%. For the same molecule, the activity, negative = inhibition in assay [10] is inactive: 14.4%. The values for the activity change, negative = cytotoxicity in assay [8], in assay [9] and in assay [6] were inactive: 0.523%, inactive: 9.26% and inactive: -0.161%, respectively. Further, the cAMP activity change in [2] (at 92.4 µM (top of the series)) was inactive: -3.73%. In addition, the activity change, negative = inhibition in assay [3] (at 92.4 µM (top of the series)) was inactive: -0.763%.
